Columns and labels:
Homo sapiens [1] = organism: Homo sapiens; experiment: Selectivity ratio of IC50 for human CDK2-cyclin E to IC50 for human CDK4-cyclin D
Homo sapiens [2] = organism: Homo sapiens; experiment: Selectivity ratio of IC50 for human CDK1-cyclin B to IC50 for human CDK4-cyclin D

With CN1CCN(c2ccc(Nc3nc(N)c(C(=O)c4ccc5c(c4)OCCO5)s3)cc2)CC1 the Ratio IC50 (Homo sapiens [1]) was > 100 and the Ratio IC50 (Homo sapiens [2]) was > 100.
